This assay has as its target T1, Interleukin-1α receptor on mouse Swiss/3T3 cells (mouse, UniProt P13504 20-576).
T1 construct: whole, on cells; also called Interleukin-1α (assay target)
T1 sequence (looked up): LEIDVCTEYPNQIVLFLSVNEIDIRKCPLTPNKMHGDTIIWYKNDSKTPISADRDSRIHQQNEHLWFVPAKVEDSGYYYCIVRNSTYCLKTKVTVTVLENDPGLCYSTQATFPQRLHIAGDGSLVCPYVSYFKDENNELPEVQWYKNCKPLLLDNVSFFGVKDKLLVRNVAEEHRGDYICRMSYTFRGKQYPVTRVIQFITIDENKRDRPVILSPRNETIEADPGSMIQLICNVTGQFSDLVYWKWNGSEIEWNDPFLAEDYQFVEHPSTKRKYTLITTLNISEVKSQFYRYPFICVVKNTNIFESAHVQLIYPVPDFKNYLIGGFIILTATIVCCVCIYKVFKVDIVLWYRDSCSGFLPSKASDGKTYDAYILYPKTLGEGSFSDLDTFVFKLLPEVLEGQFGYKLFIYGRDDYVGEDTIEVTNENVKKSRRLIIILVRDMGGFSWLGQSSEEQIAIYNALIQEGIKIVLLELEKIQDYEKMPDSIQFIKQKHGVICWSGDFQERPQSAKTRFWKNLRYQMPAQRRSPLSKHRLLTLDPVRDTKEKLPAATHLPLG
Briefly: historical value, unlabeled IL-1 alpha displacing [125I]IL-1 alpha on mouse Swiss/3T3 cells. On the procedure: Maximum total binding and nonspecific binding were determined each time each assay was run. Nonspecific binding was defined as the proportion of total binding not displaced by unlabeled ligand specific for the receptor. Specific binding was defined as the proportion of total binding that was displaced by unlabeled ligand.

This passage reports IC50 and Ki results from patent US6767890 (COASTSIDE BIO RESOURCES, dated 2004).

A word on the IC50: it is the concentration at which inhibition is half-maximal. A lower IC50 goes with inhibition by little substance. As usually defined, the Ki is the dissociation constant of the complex between target and ligand, obtained from inhibition or displacement. The low end stands for higher affinity, the high end for lower affinity.

B1: Interleukin-1α (ligand, UniProt P01583 113-271, looked up)
chain: SAPFSFLSNVKYNFMRIIKYEFILNDALNQSIIRANDQYLTAAALHNLDEAVKFDMGAYKSSKDDAKITVILRISKTQLYVTAQDEDQPVLLKEMPEIPKTITGSETNLLFFWETHGTKNYFTSVAHPNLFIATKQDYWVCLAGGPPSITDFQILENQA
modifications: 125I label on the radioligand
notes: also called IL-1 alpha; [125I]IL-1 alpha
B1 showed an IC50 of 0.031 nM and a Ki of 0.023 nM.
